Data from patent US7173005 (dated 2007).

Target: human IGF-1 receptor (IGF-1R) (human, UniProt P08069)
Experiment: competition, TR-FRET vs b-20E2

IC50: 175 nM
Binder: GGTVWPGYEWLRNA [E8 (D120)]
